Measured values reported in patent publication EP1903056A2, “HLA-A1, -A2 -A3, -A24, -B7, and -B44 tumor associated antigen peptides and compositions” (priority 2002, dated 2004).

Assays:
B*4402 = B*4402 (Homo sapiens, UniProt P01889, A223V/A65T/A93T/A95T/D201E/D98Y/E176V/E187L/E204Q/E69K/G107R/H137Y/K202T/L105A/L119I/N104T/N87E/Q56L/Q94N/R106L/R155S/R180D/S101N/S121R/S35A/S48T/T118I/V36M/W191S/Y140D/Y91S); assay: B44 supertype peptide binding, B*4402
[1] = system: B44 supertype (B*1801, B*4001, B*4002, B*4402, B*4403, B*4501); assay: B44 supertype cross-binding (degeneracy, number of alleles bound); design: species or system human; conditions: number of the six B44 alleles bound
B*4501 = B*4501 (Homo sapiens, UniProt P01889, A329T/A65T/A93T/A95T/C349S/D138N/D201E/D98Y/E176V/E187L/E204Q/E69K/H137Y/K202T/L119W/N87E/Q56L/Q94N/R155S/R180D/S121R/S35A/S48T/V127L/V306I/V36M/W191S/Y140L/Y33H/Y91S); assay: B44 supertype peptide binding, B*4501
B*4002 (B61) = B*4002 (B61) (Homo sapiens, UniProt P01889, A65T/A93T/A95T/D138N/D201E/D98Y/E176V/E204Q/E69K/K202T/N87E/Q56L/Q94N/R180L/S48T/Y33H/Y91S); assay: B44 supertype peptide binding, B*4002; conditions: read-out: B* 4002
B*4001(B60) = B*4001(B60) (Homo sapiens, UniProt P01889, A65T/A93T/A95T/D138N/D98Y/E176V/E69K/N87E/Q56L/Q94N/R180L/S121R/S35A/S48T/T167S/V36M/W171L/Y33H/Y91S); assay: B44 supertype peptide binding, B*4001
[2] = Table 28: p53-derived B44 peptides, read-out: B* 4402
[3] = Table 28: p53-derived B44 peptides
[4] = Table 29: MAGE2-derived B44 peptides, read-out: B* 4501
[5] = Table 29: MAGE2-derived B44 peptides
[6] = Table 29: MAGE2-derived B44 peptides, read-out: B* 4402
[7] = Table 29: MAGE2-derived B44 peptides, read-out: B* 4001
[8] = Table 28: p53-derived B44 peptides, read-out: B* 4501

| SMILES | Degeneracy [1, 3] | Degeneracy [1, 5] | pIC50 (B*4402; [6]) | also measured |
| --- | --- | --- | --- | --- |
| CC(C)C[C@H](NC(=O)[C@H](CC(=O)O)NC(=O)[C@H](CO)NC(=O)[C@H](Cc1ccccc1)NC(=O)[C@@H](NC(=O)[C@H](CCC(=O)O)NC(=O)[C@@H](N)CCC(N)=O)[C@@H](C)O)C(=O)O | 0 |  |  | pIC50 (B*4402; [2]): < 5.00 |
| CSCC[C@H](NC(=O)[C@H](CO)NC(=O)[C@H](CC(C)C)NC(=O)[C@H](CCC(=O)O)NC(=O)[C@H](CCC(=O)O)NC(=O)[C@@H](N)Cc1c[nH]c2ccccc12)C(=O)N[C@@H](CC(C)C)C(=O)N[C@@H](CCC(=O)O)C(=O)N[C@H](C(=O)N[C@@H](Cc1ccccc1)C(=O)O)C(C)C |  | 6 |  | pIC50 (B*4501; [4]): 6.54; pIC50 (B*4002 (B61); [5]): 7.52 |
| CC(C)C[C@H](NC(=O)[C@@H](NC(=O)[C@H](CO)NC(=O)[C@H](CCC(=O)O)NC(=O)[C@@H](N)CC(C)C)C(C)C)C(=O)N[C@@H](CCCNC(=N)N)C(=O)N[C@@H](CC(N)=O)C(=O)N[C@@H](CS)C(=O)N[C@@H](CCC(N)=O)C(=O)N[C@@H](CC(=O)O)C(=O)N[C@@H](Cc1ccccc1)C(=O)O |  | 3 | 6.68 | pIC50 (B*4001(B60); [7]): 5.27 |
| CSCC[C@H](NC(=O)[C@H](CCCNC(=N)N)NC(=O)[C@@H]1CCCN1C(=O)[C@H](C)NC(=O)[C@H](CCC(=O)O)NC(=O)[C@@H](N)CC(=O)O)C(=O)N1CCC[C@H]1C(=O)N[C@@H](CCC(=O)O)C(=O)N[C@@H](C)C(=O)O [compound 601] | 4 |  |  | pIC50 (B*4402; [2]): 5.19; pIC50 (B*4002 (B61); [3]): 5.34 |
| CC(C)[C@H](NC(=O)[C@H](CCCNC(=N)N)NC(=O)[C@@H](NC(=O)[C@H](CCC(=O)O)NC(=O)[C@@H](N)Cc1ccccc1)C(C)C)C(=O)N[C@@H](CS)C(=O)N[C@@H](C)C(=O)N[C@@H](CS)C(=O)N1CCC[C@H]1C(=O)NCC(=O)O [compound 604] | 4 |  |  | pIC50 (B*4501): 5.73; pIC50 (B*4001(B60)): 5.69 |
| CC(C)C[C@H](NC(=O)[C@H](CC(N)=O)NC(=O)CNC(=O)[C@H](CO)NC(=O)[C@H](CO)NC(=O)[C@H](CC(=O)O)NC(=O)[C@H](CCC(=O)O)NC(=O)[C@@H](N)CC(C)C)C(=O)O [compound 616] | 2 |  |  | pIC50 (B*4402; [2]): < 5.00 |
| CC(C)C[C@H](NC(=O)[C@H](CC(C)C)NC(=O)[C@H](CC(N)=O)NC(=O)CNC(=O)[C@H](CO)NC(=O)[C@H](CO)NC(=O)[C@H](CC(=O)O)NC(=O)[C@H](CCC(=O)O)NC(=O)[C@@H](N)CC(C)C)C(=O)O [compound 617] | 2 |  |  | pIC50 (B*4402; [2]): 5.73; pIC50 (B*4501; [8]): < 5.00; pIC50 (B*4002 (B61); [3]): 5.56 |
| CSCC[C@H](NC(=O)[C@H](CCC(=O)O)NC(=O)[C@H](Cc1ccccc1)NC(=O)[C@H](CCCNC(=N)N)NC(=O)[C@H](CCC(=O)O)NC(=O)[C@@H](N)CCCNC(=N)N)C(=O)N[C@@H](Cc1ccccc1)C(=O)O [compound 619] | 2 |  |  | pIC50 (B*4402): < 5.00; pIC50 (B*4501): < 5.00; pIC50 (B*4002 (B61); [3]): 5.72 |
| CC(C)C[C@H](NC(=O)[C@@H]1CCCN1C(=O)[C@H](CO)NC(=O)[C@H](CC(C)C)NC(=O)[C@@H](NC(=O)[C@H](CC(N)=O)NC(=O)[C@H](CC(N)=O)NC(=O)[C@H](CCC(=O)O)NC(=O)[C@@H]1CCCN1)C(C)C)C(=O)O [compound 625] | 1 |  |  | pIC50 (B*4501; [8]): < 5.00 |
| CC(C)C[C@H](NC(=O)[C@H](CC(N)=O)NC(=O)CNC(=O)[C@H](CCC(=O)O)NC(=O)[C@@H](N)C(C)C)C(=O)N[C@@H](CCCNC(=N)N)C(=O)N[C@H](C(=O)N[C@@H](CCC(=O)O)C(=O)N[C@@H](Cc1ccc(O)cc1)C(=O)O)C(C)C [compound 627] | 1 |  |  | pIC50 (B*4501; [8]): < 5.00; pIC50 (B*4002 (B61); [3]): < 5.00 |
| CC(C)C[C@H](NC(=O)[C@@H](NC(=O)[C@H](CO)NC(=O)[C@H](CCC(=O)O)NC(=O)[C@@H](N)CC(C)C)C(C)C)C(=O)N[C@@H](CCCNC(=N)N)C(=O)N[C@@H](CC(N)=O)C(=O)N[C@@H](CS)C(=O)N[C@@H](CCC(N)=O)C(=O)N[C@@H](CC(=O)O)C(=O)N[C@@H](Cc1ccccc1)C(=O)N[C@@H](Cc1ccccc1)C(=O)O [compound 659] |  | 5 | 6.58 | pIC50 (B*4001(B60); [7]): 6.61 |
| CC(C)C[C@H](NC(=O)[C@H](Cc1ccc(O)cc1)NC(=O)[C@H](CCC(=O)O)NC(=O)[C@@H](N)CO)C(=O)N[C@@H](CCC(N)=O)C(=O)N[C@@H](CC(C)C)C(=O)N[C@H](C(=O)N[C@@H](Cc1ccccc1)C(=O)O)C(C)C [compound 660] |  | 5 | 6.55 | pIC50 (B*4001(B60); [7]): 6.12 |
| CC[C@H](C)[C@H](NC(=O)[C@H](Cc1ccc(O)cc1)NC(=O)[C@H](CC(C)C)NC(=O)[C@H](Cc1c[nH]cn1)NC(=O)[C@H](CO)NC(=O)[C@@H](NC(=O)[C@@H]1CCCN1C(=O)[C@@H](NC(=O)[C@@H](NC(=O)[C@H](CCC(=O)O)NC(=O)[C@@H](N)C(C)C)C(C)C)C(C)C)[C@@H](C)CC)C(=O)O [compound 661] |  | 5 | 6.47 | pIC50 (B*4002 (B61); [5]): 6.84 |
| CC[C@H](C)[C@H](N)C(=O)N[C@@H](CCC(=O)O)C(=O)N[C@H](C(=O)N[C@@H](CO)C(=O)N[C@@H](Cc1ccc(O)cc1)C(=O)N[C@H](C(=O)N[C@@H](CCCCN)C(=O)N[C@H](C(=O)N[C@@H](CC(C)C)C(=O)O)C(C)C)C(C)C)[C@@H](C)O [compound 667] |  | 5 |  | pIC50 (B*4501; [4]): 4.92 |
| CC(C)C[C@H](NC(=O)[C@H](CC(C)C)NC(=O)[C@H](CC(C)C)NC(=O)[C@H](Cc1ccccc1)NC(=O)[C@H](Cc1c[nH]cn1)NC(=O)[C@@H](NC(=O)[C@H](CC(C)C)NC(=O)[C@H](CCC(=O)O)NC(=O)[C@@H](N)C(C)C)C(C)C)C(=O)O [compound 672] |  | 4 | 6.25 |  |
| CSCC[C@H](NC(=O)[C@H](CCC(=O)O)NC(=O)[C@H](C)NC(=O)[C@H](CCCCN)NC(=O)[C@@H](NC(=O)[C@@H](NC(=O)[C@@H]1CCCN1C(=O)[C@H](CCC(=O)O)NC(=O)[C@@H](N)CCCNC(=N)N)C(C)C)[C@@H](C)O)C(=O)N[C@@H](CC(C)C)C(=O)O [compound 674] |  | 4 | 6.12 | pIC50 (B*4501; [4]): 6.04; pIC50 (B*4002 (B61); [5]): 6.58 |
| CC[C@H](C)[C@H](NC(=O)[C@H](Cc1ccc(O)cc1)NC(=O)[C@H](CC(C)C)NC(=O)[C@H](Cc1c[nH]cn1)NC(=O)[C@H](CO)NC(=O)[C@@H](NC(=O)[C@@H]1CCCN1C(=O)[C@@H](NC(=O)[C@@H](NC(=O)[C@H](CCC(=O)O)NC(=O)[C@@H](N)C(C)C)C(C)C)C(C)C)[C@@H](C)CC)C(=O)N[C@@H](CC(C)C)C(=O)N[C@H](C(=O)O)C(C)C [compound 679] |  | 4 | 6.25 | pIC50 (B*4501; [4]): 6.08; pIC50 (B*4001(B60); [7]): 6.43 |
| CSCC[C@H](NC(=O)[C@H](CCCNC(=N)N)NC(=O)[C@@H]1CCCN1C(=O)CNC(=O)[C@H](CCC(=O)O)NC(=O)[C@H](CCC(=O)O)NC(=O)[C@H](CCC(=O)O)NC(=O)[C@@H](N)CCC(N)=O)C(=O)O [compound 687] |  | 3 |  | pIC50 (B*4501; [4]): 5.17 |
| CC(C)C[C@H](NC(=O)[C@H](C)NC(=O)[C@H](CCC(=O)O)NC(=O)CNC(=O)[C@H](CCCNC(=N)N)NC(=O)[C@H](C)NC(=O)[C@H](CCC(=O)O)NC(=O)[C@@H](N)CC(C)C)C(=O)NCC(=O)O [compound 695] |  | 2 |  |  |
| C[C@H](NC(=O)[C@@H](NC(=O)[C@H](CCC(N)=O)NC(=O)[C@H](CCC(N)=O)NC(=O)[C@H](CCC(=O)O)NC(=O)[C@@H](N)CCC(=O)O)[C@@H](C)O)C(=O)N[C@@H](CO)C(=O)N[C@@H](CO)C(=O)N[C@@H](CO)C(=O)N[C@@H](CO)C(=O)N[C@H](C(=O)O)[C@@H](C)O [compound 706] |  | 1 |  | pIC50 (B*4002 (B61); [5]): < 5.00 |
| CSCC[C@H](NC(=O)[C@H](CCCNC(=N)N)NC(=O)[C@@H]1CCCN1C(=O)CNC(=O)[C@H](CCC(=O)O)NC(=O)[C@H](CCC(=O)O)NC(=O)[C@@H](N)CCC(=O)O)C(=O)N[C@@H](Cc1ccccc1)C(=O)O [compound 708] |  | 1 | 5.62 | pIC50 (B*4501; [4]): 6.03; pIC50 (B*4002 (B61); [5]): < 5.00 |
| CC(C)C[C@H](NC(=O)[C@H](Cc1ccc(O)cc1)NC(=O)[C@H](CCC(=O)O)NC(=O)[C@@H](N)CO)C(=O)N[C@@H](CCC(N)=O)C(=O)N[C@@H](CC(C)C)C(=O)N[C@H](C(=O)O)C(C)C [compound 709] |  | 1 |  | pIC50 (B*4001(B60); [7]): 5.11 |
| CC[C@H](C)[C@H](NC(=O)[C@H](CCCCN)NC(=O)[C@H](CCC(=O)O)NC(=O)[C@H](CCC(=O)O)NC(=O)[C@@H]1CCCN1)C(=O)N[C@@H](Cc1c[nH]c2ccccc12)C(=O)N[C@@H](CCC(=O)O)C(=O)N[C@@H](CCC(=O)O)C(=O)N[C@@H](CC(C)C)C(=O)N[C@@H](CO)C(=O)N[C@@H](CCSC)C(=O)O [compound 715] |  | 0 | < 5.00 | pIC50 (B*4001(B60); [7]): < 5.00 |

pIC50: −log10 of the molar value. Like-named read-outs stand apart in the source and are kept apart here.
